Apparent affinities of Ab-14 variants for a coronavirus HR2 peptide

From the AlphaSeq antibody data of Li et al. 2023 (doi:10.1038/s41467-023-39022-2), copy in the FLAb collection.

Binding partner: SARS-CoV-2 spike HR2 peptide, sequence PDVDLGDISGINAS.

Parent: Ab-14, a human scFv built as VH, the linker GGGGSGGGGSGGGGS, VL. Only the CDRs of the light chain vary.
VH: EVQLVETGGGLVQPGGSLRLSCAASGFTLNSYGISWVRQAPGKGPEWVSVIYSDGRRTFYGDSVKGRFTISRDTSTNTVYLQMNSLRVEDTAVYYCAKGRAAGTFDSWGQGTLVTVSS
VL: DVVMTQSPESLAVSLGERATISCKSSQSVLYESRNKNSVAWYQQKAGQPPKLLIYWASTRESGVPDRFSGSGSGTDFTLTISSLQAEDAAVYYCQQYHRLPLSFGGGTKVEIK

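The parent was found by panning a naive human phage display library on the peptide. These sequences belong to a second round, designed from the earlier measurements on random variants of the parent. Several design methods are mixed in this list. Affinity was read by AlphaSeq, a pooled yeast mating assay with surface-displayed partners. Binding brings cells together so that they mate, and sequencing counts the barcode pairs among the diploids. Scores were corrected for input abundance and mapped to Kd with protein pairs of known affinity run in the same pool. The assay was run in six technical replicates.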

Each variant is given by its three light chain CDRs, as the data file delimits them; those of the parent are KSSQSVLYESRNKNSVA, WASTRES, QQYHRLPLS. Values are log10 of the apparent Kd in nM; lower means stronger binding. Averages over replicates are reported, and they cover detected replicates only. "nd" means that the variant was in the library but no mating with the target was seen in any replicate; the authors take this as a sign of poor binding, and no number exists. As a blank, each scFv also met three strains without target: over all light chain designs, 4% of these pairings were detected, typically at 2.64 and seldom below 1.59. Also given: how often the same scFv was detected with the empty control strains. The range of this assay differs from that of the first round, and the authors advise against merging the two. In the paper, a design with two or fewer of six values counts as a poor binder.

Variant KLLQTVMNGRYKRNNVA, HMTMRED, QQYFRLPLS gave 2.95 (2 of 6 replicates; controls 0 of 18).
Variant SMTIDTEMEAKHQNSVA, EASHTEY, QQYSELPLT gave 1.61 (6 of 6 replicates; controls 1 of 18).
Variant KSSQSILYESRNKNSVA, DASTRES, QQYHRLPLS gave -0.04 (6 of 6 replicates; controls 3 of 18).
Variant QIYDATGMESRNKNPIA, DVSTRPS, QQYDRLPLS gave 0.17 (6 of 6 replicates; controls 4 of 18).
Variant HMSALTMLGMRQKNSVA, QMTTREN, QQYDRLPLV gave 0.69 (6 of 6 replicates; controls 1 of 18).
Variant HSSPSVEYESRNKNSVA, NASCRES, QQYHRLPLS gave 0.50 (6 of 6 replicates; controls 1 of 18).
Variant KVSQSVLYESGTKNSVA, NASFRES, QQYHRLPLS gave 0.32 (6 of 6 replicates; controls 0 of 18).
Variant KLPAWQDYESRNKASVA, QASTRES, QQYHRLPLS gave 0.51 (6 of 6 replicates; controls 0 of 18).
Variant MFSQSVMYGSFYRNSVA, QTSTREE, QQYDRLPLS gave 0.55 (6 of 6 replicates; controls 1 of 18).
Variant KLHHYKLGENGMRGSVA, NATIRDQ, QQYFRLPLF gave 0.49 (6 of 6 replicates; controls 4 of 18).
Variant KLSQSVLYESRNKNSVA, GASTREQ, QQYHRLPLS gave -0.08 (6 of 6 replicates; controls 0 of 18).
Variant KSPQSVLYHSRNSNSVA, GASLRES, QQYHRLPLS gave 1.18 (6 of 6 replicates; controls 0 of 18).
Variant KSSQSVLAESRNKNSVA, WASTRES, QQYHRYPLS gave 2.74 (4 of 6 replicates; controls 0 of 18).
Variant KIAQSYLYEDRNKNSVA, NASTRLS, QQYHRLPLS gave 0.08 (6 of 6 replicates; controls 0 of 18).
Variant KLESLMGESYAEKENIA, EGEQRFS, QQYVRLPLH gave 2.13 (6 of 6 replicates; controls 0 of 18).
Variant KLSQSVLYESRNKNSVA, EASTRES, QCYHRLPLS gave 0.58 (6 of 6 replicates; controls 1 of 18).
Variant KLSQSVLYEQRNKNSVA, EASTRLS, QQYHRLPLS gave 0.03 (6 of 6 replicates; controls 0 of 18).
Variant KSSQSVLMESRNKNSVA, WASTRES, QQYINLPNS gave 1.39 (2 of 6 replicates; controls 0 of 18).
Variant KVFPSELGESRNKMSVA, QASTRES, QQYHRLPLS gave -0.12 (6 of 6 replicates; controls 0 of 18).
Variant KLSNSYEYQSRNMNSVA, NASTRLS, QQYHRLPLS gave 0.51 (6 of 6 replicates; controls 0 of 18).
Variant KLSQSVDYESRNKNNVA, EASTRES, QQYHRLPLS gave -0.70 (6 of 6 replicates; controls 0 of 18).

The remaining entries, values ahead:

Read-out -0.32 (6 of 6 replicates; controls 1 of 18), from KFSQSVLYESGTKNSVA, NASTRES, QQYHRLPLS.
Read-out 2.83 (2 of 6 replicates; controls 1 of 18), from RIDAYPPMLGKNIDSIA, ENAITLH, QQYANLPLS.
Read-out 2.11 (2 of 6 replicates; controls 0 of 18), from KSSQSVLYESRNKNWVA, QASTRES, QQYHRLPLS.
Read-out 0.93 (6 of 6 replicates; controls 2 of 18), from TIQMFMDNLYGNRNNVA, NTSTLGD, QSYDRLPLS.
Read-out 0.49 (6 of 6 replicates; controls 1 of 18), from KISQSVLYEGRNKNSVA, EASTRES, QQYHRLPLS.
Read-out 1.09 (2 of 6 replicates; controls 0 of 18), from SVSEFMKGLMMRTDSIA, DNTTREN, QQYDRLPLS.
Read-out 2.57 (4 of 6 replicates; controls 0 of 18), from HITMGMYVHGRHHSSIA, QAEERAK, QQYDRLPLM.
Read-out -0.19 (6 of 6 replicates; controls 1 of 18), from KVDSAFLYEQRNKNSVA, DASQRES, QQYHRLPLS.
Read-out 0.25 (6 of 6 replicates; controls 0 of 18), from MMSYGWLMGSRNKRNVA, DRETRES, QQYDRLPLS.
Read-out nd (0 of 6 replicates; controls 0 of 18), from KSSQNVLLESDNFNSVA, WASTRES, QTYHRLPLS.
Read-out 0.28 (6 of 6 replicates; controls 0 of 18), from MISDLTMYGSRAKNSIA, DLSTRGS, QQYHRLPLS.
Read-out 0.38 (6 of 6 replicates; controls 3 of 18), from KFLQSVLYESRNFNSVA, HASTRED, QQYHRLPLS.
Read-out 0.15 (6 of 6 replicates; controls 0 of 18), from KLSQSVQYEDRNKNSVA, NASTRES, QQYHRLPLS.
Read-out 0.54 (6 of 6 replicates; controls 1 of 18), from KLSQSELYESRNKNSVA, NASKRLS, QQYHRLPLS.
Read-out nd (0 of 6 replicates; controls 0 of 18), from EISILGEEVTGHYSNVA, EQHVTDM, QQYFRLPLS.
Read-out -0.24 (6 of 6 replicates; controls 0 of 18), from KLSQSVLMQSRNKNSVA, EASTRES, QQYHRLPLS.
Read-out -0.39 (6 of 6 replicates; controls 0 of 18), from KLGQAVAMTSRNKNNVA, DLNERER, QQYHRLPLS.
Read-out 2.44 (5 of 6 replicates; controls 0 of 18), from KLRESIHVEMKQKNNVA, DNSTRES, QDYHRLPLS.
Read-out -0.16 (6 of 6 replicates; controls 2 of 18), from KLSQSDLYESRNWNSVA, NASTRES, QQYHRLPLS.
Read-out 1.72 (2 of 6 replicates; controls 0 of 18), from KSSQSGLYESRNKNSVA, WAMTRES, QWYKRLPLS.
Read-out -0.05 (6 of 6 replicates; controls 0 of 18), from KSSFSVDFESRNKNSVA, DASTRES, QQYHRLPLS.

The first 3 entries again:

For KLLQTVMNGRYKRNNVA, HMTMRED, QQYFRLPLS, the assay gave 2.95 (2 of 6 replicates; controls 0 of 18).
For SMTIDTEMEAKHQNSVA, EASHTEY, QQYSELPLT, the assay gave 1.61 (6 of 6 replicates; controls 1 of 18).
For KSSQSILYESRNKNSVA, DASTRES, QQYHRLPLS, the assay gave -0.04 (6 of 6 replicates; controls 3 of 18).